# CycPeptMPDB entries from one study

Source: CycPeptMPDB (Li et al. 2023), which took these values from Townsend et al. 2020, doi:10.26434/chemrxiv.13335941.v1.

PAMPA measures passive passage through an artificial lipid membrane.
P is given in units of 10^-6 cm/s (from log10 values with two decimals); larger means faster passage.

Listed for CC(C)C[C@@H]1C(=O)N[C@@H](Cc2ccccc2)CC(=O)N2CCC[C@@H]2C(=O)N[C@H](CC(C)C)C(=O)N[C@@H](Cc2ccccc2)C(=O)N2CCC[C@@H]2C(=O)N[C@@H](Cc2ccccc2)CC(=O)N1C: PAMPA 1.4 × 10^-6 cm/s.
Listed for CC(C)C[C@@H]1C(=O)N[C@@H](Cc2ccccc2)C(=O)N2CCC[C@@H]2C(=O)N[C@H](C)C(=O)N[C@H](CC(C)C)C(=O)N(C)[C@H](CC(C)C)C(=O)N2CCC[C@@H]2C(=O)N1C: PAMPA 0.22 × 10^-6 cm/s.
Listed for CCCN1CC(=O)N(C)[C@H](CC(C)C)C(=O)N(C)[C@@H](CC(C)C)C(=O)N2CCC[C@@H]2C(=O)N(Cc2ccccc2)CC(=O)N[C@@H](Cc2ccccc2)C(=O)N2CCC[C@H]2C1=O: PAMPA 4.2 × 10^-6 cm/s.
Listed for CC(C)C[C@@H]1NC(=O)[C@@H](CC(C)C)N(C)C(=O)C[C@H](Cc2ccccc2)NC(=O)[C@H](Cc2ccccc2)NC(=O)CN(Cc2ccccc2)C(=O)[C@H]2CCCN2C1=O: PAMPA 2.8 × 10^-6 cm/s.
Listed for CC(C)C[C@@H]1NC(=O)C[C@H](Cc2ccccc2)NC(=O)[C@@H]2CCCN2C(=O)[C@H](Cc2ccccc2)NC(=O)[C@@H](CC(C)C)NC(=O)[C@@H]2CCCN2C(=O)[C@H](CC(C)C)N(C)C1=O: PAMPA 3.1 × 10^-6 cm/s.
Listed for CC(C)C[C@@H]1NC(=O)C[C@H](Cc2ccccc2)NC(=O)[C@H](Cc2ccccc2)NC(=O)[C@@H](CC(C)C)NC(=O)[C@H]2CCCN2C(=O)[C@@H](CC(C)C)N(C)C1=O: PAMPA 3.3 × 10^-6 cm/s.
Listed for CC(C)C[C@@H]1NC(=O)[C@H](CC(C)C)N(C)C(=O)[C@H](C)NC(=O)[C@@H]2CCCN2C(=O)[C@H](Cc2ccccc2)NC(=O)[C@@H](CC(C)C)N(C)C(=O)[C@@H]2CCCN2C1=O: PAMPA 2.1 × 10^-6 cm/s.
Listed for CC(C)C[C@@H]1NC(=O)[C@H](C)N(C)C(=O)[C@@H]2CCCN2C(=O)[C@H](Cc2ccccc2)NC(=O)CN(Cc2ccccc2)C(=O)[C@@H]2CCCN2C(=O)[C@@H](CC(C)C)NC1=O: PAMPA 0.074 × 10^-6 cm/s.
Listed for CC(C)C[C@@H]1C(=O)N[C@H](CC(C)C)C(=O)N2CCC[C@@H]2C(=O)N(Cc2ccccc2)CC(=O)N[C@@H](Cc2ccccc2)C(=O)N2CCC[C@H]2C(=O)N(C)[C@H](C)C(=O)N1C: PAMPA 3.9 × 10^-6 cm/s.
Listed for CC(C)C[C@@H]1NC(=O)C[C@H](Cc2ccccc2)NC(=O)[C@H](Cc2ccccc2)NC(=O)[C@@H](CC(C)C)NC(=O)[C@@H]2CCCN2C(=O)[C@@H](CC(C)C)N(C)C1=O: PAMPA 4.7 × 10^-6 cm/s.
Listed for CC(C)C[C@@H]1NC(=O)[C@@H](C)N(C)C(=O)[C@H](Cc2ccccc2)NC(=O)[C@@H](CC(C)C)NC(=O)[C@H]2CCCN2C(=O)C[C@H](Cc2ccccc2)NC1=O: PAMPA 0.47 × 10^-6 cm/s.
Listed for CCCN1CC(=O)N(C)[C@@H](CC(C)C)C(=O)N(Cc2ccccc2)CC(=O)N2CCC[C@@H]2C(=O)N(C)[C@@H](CC(C)C)C(=O)N[C@@H](Cc2ccccc2)C1=O: PAMPA 7.1 × 10^-6 cm/s.
Listed for CC(C)C[C@@H]1NC(=O)[C@H](C)N(C)C(=O)[C@H]2CCCN2C(=O)[C@H](Cc2ccccc2)NC(=O)[C@@H](CC(C)C)N(C)C(=O)[C@@H]2CCCN2C(=O)[C@H](CC(C)C)NC1=O: PAMPA 2 × 10^-6 cm/s.
Listed for CC(C)C[C@H]1NC(=O)[C@H](CC(C)C)N(C)C(=O)[C@@H](C)NC(=O)[C@H]2CCCN2C(=O)[C@H](Cc2ccccc2)NC(=O)CN(Cc2ccccc2)C(=O)[C@H]2CCCN2C1=O: PAMPA 0.54 × 10^-6 cm/s.
Listed for CC(C)C[C@@H]1NC(=O)[C@@H](C)NC(=O)[C@H](Cc2ccccc2)NC(=O)[C@H](CC(C)C)N(C)C(=O)[C@H]2CCCN2C(=O)[C@H](CC(C)C)N(C)C1=O: PAMPA 15 × 10^-6 cm/s.

The last 2 entries again:

SMILES	PAMPA (10^-6 cm/s)
CC(C)C[C@H]1NC(=O)[C@H](CC(C)C)N(C)C(=O)[C@@H](C)NC(=O)[C@H]2CCCN2C(=O)[C@H](Cc2ccccc2)NC(=O)CN(Cc2ccccc2)C(=O)[C@H]2CCCN2C1=O	0.54
CC(C)C[C@@H]1NC(=O)[C@@H](C)NC(=O)[C@H](Cc2ccccc2)NC(=O)[C@H](CC(C)C)N(C)C(=O)[C@H]2CCCN2C(=O)[C@H](CC(C)C)N(C)C1=O	15

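Lipid, pH, incubation time, direction and concentration are not recorded in the data file. The list need not hold all peptides of the study. Entries at the database's floor value (log10 P of -10) are not listed.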